# Tested on: rice (GA-tolerant)
# Assay: Greenhouse trial, crop plant compatibility in rice (GA-tolerant)
# Format: in vivo
# Details: 25 g of ai/ha; post-emergence, 1-3-leaf stage; scoring 15 days after application (Table 6)
# Protocol: The trials were carried out under greenhouse conditions (test pots, diameter 8 cm, spray application using 300 l of water/hectare, 2 repetitions, 6 to 8 plants per pot, permanently flooded).
# Scoring was by visual comparison of the treated with the untreated controls (0-100% scale, 13-15 days after the application) (see details in the respective tables).
substance,measurement,value
oxadiargyl [C49],Damage to crop plants (%) rice (GA-tolerant) (≦15-20% acceptable),15%

# Reference: patent publication US20110287934A1, “HERBICIDAL COMPOSITION FOR TOLERANT OR RESISTANT RICE CROPS” (priority 2010, published 2011)
